From patent US10045529B2, “Quat cleaner with glycerin ether ethoxylates” (Ecolab USA Inc., priority 2012, dated 2018)

Experiment: Water solubility
Format: physicochemical

| Substance | % Soluble |
| --- | --- |
| 2 Ethylhexyl glycerin ether [reference compound] | Insoluble |
| 2-Ethyl Hexanol Glycerin Ether Ethoxylate (3 moles) [2EHGE (3 EO)] | 100% |
